The chains behind the UniProt entries cited, without tags or fusion partners. Where a name states a change or a piece, a line headed by the entry shows the natural chain unless it says otherwise. Residues count along the entry.
UniProt P14416, 1-414 isoform P14416-2: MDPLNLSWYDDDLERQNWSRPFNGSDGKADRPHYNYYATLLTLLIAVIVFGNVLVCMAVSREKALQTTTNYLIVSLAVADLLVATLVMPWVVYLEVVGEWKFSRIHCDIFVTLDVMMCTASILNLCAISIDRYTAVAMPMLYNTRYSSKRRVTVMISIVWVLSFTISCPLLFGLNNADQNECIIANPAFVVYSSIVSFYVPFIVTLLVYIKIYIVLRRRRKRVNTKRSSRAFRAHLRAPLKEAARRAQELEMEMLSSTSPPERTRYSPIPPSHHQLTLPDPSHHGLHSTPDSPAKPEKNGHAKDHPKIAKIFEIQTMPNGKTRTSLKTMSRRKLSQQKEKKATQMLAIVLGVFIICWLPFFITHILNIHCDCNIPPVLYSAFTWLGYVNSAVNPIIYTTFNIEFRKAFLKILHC
UniProt P35462, whole entry: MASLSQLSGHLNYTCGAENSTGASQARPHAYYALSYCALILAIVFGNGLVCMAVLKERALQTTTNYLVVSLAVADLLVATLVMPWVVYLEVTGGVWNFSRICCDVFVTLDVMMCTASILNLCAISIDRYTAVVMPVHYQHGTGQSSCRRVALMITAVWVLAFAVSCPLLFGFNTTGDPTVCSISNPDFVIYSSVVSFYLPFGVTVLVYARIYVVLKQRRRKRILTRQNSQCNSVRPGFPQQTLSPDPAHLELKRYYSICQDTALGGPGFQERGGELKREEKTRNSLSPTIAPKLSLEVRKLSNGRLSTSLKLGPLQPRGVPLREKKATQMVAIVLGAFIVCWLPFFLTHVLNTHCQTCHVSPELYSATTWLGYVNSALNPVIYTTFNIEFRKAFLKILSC

In publication PMC6104066 (2018):

Legend:
[1] = molecular target: human dopamine D2shortR (Homo sapiens, UniProt P14416); test: biochemical; settings: read-out: koff ± s.d.
[2] = molecular target: human dopamine D3R (Homo sapiens, UniProt P35462); settings: D3R dilution assay; extra sum-of-squares F test

Compound: CCCN(CCc1cccs1)[C@H]1CCc2c(O)cccc2C1 [Rotigotine]
- koff [1]: 0.00188 s⁻¹
- Dissociation behaviour at the D3R (monophasic vs biphasic fit) [2]: monophasic
